{
  "source": "paper PMC10306110",
  "about": "(Cell, 2023)",
  "key": {"[1]": {"system": "learned helpless C57BL/6J mice", "test": "Open field motor activity", "assay_type": "in vivo, mouse", "conditions": "day 12; 2 or 5 mg/kg ‘8090, 5 mg/kg ‘8219; 40 mg/kg Ibo, 10 mg/kg Flx"}, "[2]": {"system": "learned helpless C57BL/6J mice", "test": "Sensitivity to foot-shock", "assay_type": "in vivo, mouse", "conditions": "days 13 and 22"}},
  "data": [
    {"substance": "ibogaine", "values": [
      {"measurement": "locomotion in the open field", "setting": "[1]", "value": "No locomotor differences were found"},
      {"measurement": "reactivity to foot-shock", "setting": "[2]", "value": "do not affect reactivity to foot-shock"}
    ]}
  ]
}
